Residual activity (% of control), Ala-Pro-AMC cleavage, inhibitor data for one substance are collected here from patent US20020115843A1.

Common to all, as to test: cell-based or functional assay
Assay [1] addresses myc-His tagged DPRP-1 (expressed from pcDNA-MycHis-DPRP1) (human) (UniProt Q6V1X1).
In assay [2] the target is dipeptidyl peptidase IV (DPPIV) (UniProt P27487).
Assay [3] deals with myc-His tagged DPRP-2 (expressed from pcDNA-MycHis-DPRP2) (human) (UniProt Q86TI2).

With Aprotinin (from UniProt P00974 36-93), the figures for the Residual activity (% of control), Ala-Pro-AMC cleavage, inhibitor at 5 µg/ml in assay [1], in assay [2] and in assay [3] were 77.5 % of control, 80.2 % of control and 63.2 % of control, respectively.
